Screening results (PubChem)
Rows were chosen to be rich in hits. Some 2.4% of all compounds tested hit in one or more screens of this group.
Tb PFK inh = blocks T. brucei phosphofructokinase; O15648; T. brucei PFK, ADP-Glo luminescence; Potency, µM (doses to about 57.5 µM), hits mostly inhibitors; actives 0.17% (n = 330,000); note: nearly all actives have a fitted effect of over 60% in size
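1.25 nM PFK with 0.5 mM F6P and 0.1 mM ATP in 0.1 M TEA pH 8.0, 5 mM MgCl2, incubated 45 min at room temperature; ADP measured by ADP-Glo luminescence; compounds titrated up to 57 uM.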
Rango release inh = inhibition of RanGTP-driven Rango-importin beta dissociation | Biochemical FRET Rango-importin beta, RanGTP-induced dissociation | Potency, µM (top dose mostly 46.1 µM) | actives 0.071% (n = 340,000) | AID 540253; calls by dose curve; note: nearly all actives have a fitted effect of over 45% in size
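Rango FRET biosensor (snurportin-1 IBB flanked by N-terminal EYFP and C-terminal CFP10) at 0.1 uM, with 0.25 uM importin beta in PBS, 1mM DTT, 0.02% Tween-20, 0.1% BSA. 0.6 uM Ran, 2mM GTP and 0.2 uM RCC1 were then added for 45 min at room temperature. Inhibition read as loss of FRET rise.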
Rango-impB inh = inhibitors of Rango-importin beta complex formation. Q14974. Rango CFP/YFP FRET sensor + importin beta, 45 min. Potency, µM (highest dose often 92.2 µM). actives 0.031% (n = 340,000). AID 540263; calls by dose curve; note: nearly all actives have a fitted effect of over 15% in size
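FRET biosensor (snurportin 1 IBB flanked by EYFP and cerulean), 50 nM, with compound 5 min, then 0.125 microM importin beta in PBS, 1 mM DTT, 0.02% Tween-20, 0.1% BSA. CFP/YFP ratio read after 45 min at room temperature; pre-read flags interference.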
PGK inhibitor = blocks T. brucei phosphoglycerate kinase; P07378; actives 0.043% (n = 380,000); PGK/GAPDH coupled, Kinase-Glo luminescence, 60 min; Potency, µM (titrated, usually from 57.5 µM), hits mostly inhibitors; note: nearly all actives have a fitted effect of over 60% in size
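Luminescent ATP detection (Kinase-Glo Plus) follows a 60-minute room-temperature incubation, with wells lacking PGK as controls. Buffer: 100 mM TEA (pH 7.6), 5 mM MgCl2, 0.01% Tween-20. Coupling enzyme GAPDH (100 nM final) supplies unstable 1,3-BPG in-well.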
ELG1 DNA repair = ELG1-dependent DNA repair inhibition; actives 2.3% (n = 330,000); AID 504467; Potency, µM (top dose mostly 46.1 µM), usual class: inhibitors; HEK293T ELG1-luciferase reporter, luminescence, 16 h; DNA damage induced by 5-fluorouridine; note: nearly all actives have a fitted effect of over 55% in size
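DMSO vehicle served as the neutral condition. Each well held 2,000 cells given 5-fluorouridine plus compound; after 16 hr at 37 °C/5% CO2, ONE-Glo was added and luciferase measured 30 min later.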
PKM2 activator = PKM2 (human) enzyme activation; purified PKM2, Kinase-Glo ATP luminescence, activation; response scale: 0% is enzyme alone, no compound; Potency, µM (titrated, usually from 57.5 µM), actives largely listed as activators; AID 1631; actives 0.34% (n = 260,000); P14618; note: nearly all actives have a fitted effect of over 55% in size
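Purified hPK-M2 (>95% pure) converted ADP (0.1 mM final) to ATP with 0.5 mM PEP in 50 mM imidazole pH7.2, KCl, MgCl2, Tween 20, BSA; 1 h at room temperature. ATP detected by Kinase-Glo luminescence.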
A number is an active result; – = inactive; ? = inconclusive; · = no result given. Unless noted, calls come from the whole dose curve; as a rule, active = well fitted curve in the direction sought with a large enough effect; inconclusive = small, poorly fitted or top-dose-only effect, or another doubt; inactive = no such curve, though single readings can be large; an effect the other way counts as inactive or inconclusive.

SMILES	Tb PFK inh	Rango release inh	Rango-impB inh	PGK inhibitor	ELG1 DNA repair	PKM2 activator
Cc1ccc(-c2nnc(SCC(=O)N/N=C/c3ccc(C)s3)n2-c2ccccc2)cc1	–	–	–	–	23.1µM	–
O=C(CSc1nnc(-c2ccncc2)n1-c1ccccc1)Nc1ccc(F)cc1	·	·	·	–	·	·
COc1cccc(N2C(=O)Nc3ccc(Br)cc3C2(O)C(=O)NCCN(C)C)c1 (stereo not drawn)	–	–	–	–	–	·
CCOC(=O)c1c(NC(=O)CCS(=O)(=O)c2ccccc2)sc2c1CCN(C(C)C)C2	–	?	?	–	–	–
CCOC(=O)N1CCN(S(=O)(=O)Cc2ccccc2)CC1	–	–	–	–	–	–
O=C(CCl)N1CCN(S(=O)(=O)Cc2ccccc2)CC1	–	–	–	–	9.2µM	·
COc1ccc(CC(=O)Nc2cc(=O)n(C)c(=O)n2C)cc1	–	–	–	–	–	15.8µM
COCCn1c(C)cc(C(=O)CSc2nc3ccccc3c(=O)[nH]2)c1C	–	–	?	–	?	–
COCC(C)n1c(C)cc(C(=O)CSc2nc3ccccc3c(=O)[nH]2)c1C (stereo not drawn)	–	–	?	–	16.4µM	–
Cc1nnc(NC(=O)c2nc(S(=O)(=O)Cc3ccccc3C)ncc2Cl)s1	–	–	–	–	20.6µM	·
O=C(Cc1ccc(Br)c2ccccc12)N/N=C/c1ccccn1	–	–	–	–	9.2µM	–
CCOc1ccc(Br)cc1C(=O)N/N=C/c1ccccn1	–	–	–	–	11.6µM	·
Cc1ccc(-c2nnn(CC(=O)N(CC(=O)NC3CCCCC3)c3ccccc3F)n2)o1	–	–	–	–	–	–
COc1ccc(C2=NNC(=Nc3cc(S(=O)(=O)N(C)C)ccc3C)SC2)c(OC)c1	–	–	–	–	14.6µM	–
O=C(Nc1ncc2c(n1)CC(c1ccco1)CC2=O)c1ccco1 (stereo not drawn)	–	–	–	–	?	28.2µM
COC(=O)c1cnn(-c2ccc(Cl)cc2)c1/C=N/NC(N)=S	–	–	–	–	13µM	–
O=c1c(-c2ccc([N+](=O)[O-])cc2)coc2c(O)c(O)ccc12	–	–	–	8.91µM	?	–
O=C(OCc1c(-c2ccccc2)ncc2ccccc12)c1cccc(Br)c1	–	–	–	–	9.2µM	·
O=C(OCc1c(-c2ccccc2)ncc2ccccc12)c1ccc(F)cc1	–	–	–	–	?	·
COc1cccc(NC2=Nc3cccc4cccc2c34)c1	–	–	58µM	–	?	–
Cc1ccc(N2CCN(c3nc4c(S(=O)(=O)c5ccc(C)c(C)c5)nnn4c4ccccc34)CC2)c(C)c1	·	·	·	–	·	·
CCOC(=O)N1CCN(C(=O)c2cccn3c(=O)c4cc(Cl)ccc4nc23)CC1	–	?	?	–	–	–
CCOC(CNC(=O)c1cccn2c(=O)c3cc(Cl)ccc3nc12)OCC	–	?	?	–	23.1µM	–
CCN(CC)CCCNC(=O)c1oc2c(c1C)-c1nn(Cc3ccc(Cl)cc3)cc1CC2	·	·	·	–	·	·
Cc1ccc(CNC(=O)CSc2ncc3c(n2)-c2ccc(Cl)cc2N(Cc2ccccc2)S3(=O)=O)cc1	·	·	·	–	·	·
SMILES	Tb PFK inh	Rango release inh	Rango-impB inh	PGK inhibitor	ELG1 DNA repair	PKM2 activator
COc1ccc(Cl)cc1Nc1nc2ccc(C)cc2n2cnnc12	–	–	–	–	?	·
COc1ccc(OC)c(Nc2nc3ccc(C)cc3n3cnnc23)c1	–	–	–	–	8.2µM	·
COc1ccccc1NC(=O)C1=C(C)Nc2nc(-c3cccs3)nn2C1c1cccnc1 (stereo not drawn)	–	–	–	–	18.4µM	–
Cc1ccc2c(c1)c1c3n2CCNC3CCC1 (stereo not drawn)	–	–	–	–	–	–
Cc1ccc(C[n+]2cc(-c3ccc(Cl)cc3)n3c2CCC3)cc1	–	–	?	–	4.61µM	–
Clc1ccc(-c2c[n+](Cc3ccc(Cl)c(Cl)c3)c3n2CCC3)cc1	12µM	·	·	·	–	–
CCc1ccc(NC(=O)C[n+]2cc(-c3ccc(C)cc3)n3c2CCC3)cc1	–	–	?	–	11.6µM	–
Cc1ccc(-c2c[n+](CC(=O)Nc3c(C)cccc3C)c3n2CCC3)cc1	–	–	–	–	?	–
COc1cccc(COCC(O)CN2CCC(C(N)=O)CC2)c1 (stereo not drawn)	–	–	–	–	–	–
COc1ccc(CC(=O)Nc2cc(C)ccc2O)cc1OC	–	–	–	–	?	–
CCCN1Cc2cccc(C(=O)N3CCN(c4cc(Cl)ccc4C)CC3)c2C1=O	–	–	–	–	20.6µM	–
Cc1ccc(Cl)cc1N1CCN(C(=O)CN2C(=O)c3cccc4cccc2c34)CC1	–	–	?	–	20.6µM	–
Cc1cccc(CNC(=O)C2CCC(=O)N(C3CCCCCC3)C2)c1 (stereo not drawn)	–	–	–	–	?	–
Cc1nn(Cc2ccc(Cl)cc2Cl)c(C)c1NC(=O)CCl	–	–	–	–	14.6µM	–
Cc1nn(Cc2ccc(Cl)cc2Cl)c(C)c1NC(=O)c1nn(C)cc1Cl	–	–	–	–	–	–
O=S(=O)(NCCNc1nccc(C(F)(F)F)n1)c1ccccc1	–	–	–	–	?	17.8µM
O=C(NCCNc1nccc(C(F)(F)F)n1)c1cccc(C(F)(F)F)c1	–	–	–	–	?	–
CSc1nc(N)nc2c1ncn2CC(=O)Nc1ccc(C)c(C)c1	–	–	–	–	6.51µM	·
CSc1nc(N)nc2c1ncn2CC(=O)NCC(c1ccccc1)c1ccccc1	–	–	–	–	?	·
C(C#CCCCCCCCCC[n+]1ccccc1)#CCCCCCCCCC[n+]1ccccc1	–	–	–	–	18.3µM	–
C=CCn1cccc(C(=O)Nc2cc(OC)ccc2OC)c1=O	–	–	–	–	–	–
COc1ccc(C2=NNC(=O)C2(C)Br)cc1 (stereo not drawn)	·	–	–	–	·	·
NS(=O)(=O)c1ccc(CCNCc2ccccc2OCc2ccc(F)cc2)cc1	–	–	–	–	11.6µM	·
NS(=O)(=O)c1ccc(NCc2ccccc2OCc2ccc(F)cc2)cc1	–	–	–	–	?	–
Cn1nnnc1Sc1ncnc2scc(-c3cccc(C(F)(F)F)c3)c12	–	–	–	–	?	·
Cn1nnnc1Sc1ncnc2scc(-c3ccc(-c4ccccc4)cc3)c12	–	–	?	–	?	·
Cn1nnnc1Sc1ncnc2scc(-c3cc4ccccc4o3)c12	–	–	–	–	20.6µM	·
Cn1nnnc1Sc1ncnc2scc(-c3ccc(C(F)(F)F)cc3)c12	–	–	–	–	6.51µM	·
